# Tests used:
# Protein sequences, listed by entry. Tags and fused reporters are not part of them.
# UniProt P35372, whole entry: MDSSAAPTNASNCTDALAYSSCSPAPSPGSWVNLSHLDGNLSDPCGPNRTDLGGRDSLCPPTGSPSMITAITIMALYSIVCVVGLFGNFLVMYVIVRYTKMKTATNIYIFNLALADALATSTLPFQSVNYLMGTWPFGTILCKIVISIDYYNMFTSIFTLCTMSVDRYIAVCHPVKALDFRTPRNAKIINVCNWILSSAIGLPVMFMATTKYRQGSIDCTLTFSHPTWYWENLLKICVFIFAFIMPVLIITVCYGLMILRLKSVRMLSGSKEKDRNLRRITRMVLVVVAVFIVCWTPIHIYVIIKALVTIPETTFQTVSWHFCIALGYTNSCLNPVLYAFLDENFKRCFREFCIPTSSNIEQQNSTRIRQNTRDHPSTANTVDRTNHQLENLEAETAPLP
# UniProt P41145, whole entry: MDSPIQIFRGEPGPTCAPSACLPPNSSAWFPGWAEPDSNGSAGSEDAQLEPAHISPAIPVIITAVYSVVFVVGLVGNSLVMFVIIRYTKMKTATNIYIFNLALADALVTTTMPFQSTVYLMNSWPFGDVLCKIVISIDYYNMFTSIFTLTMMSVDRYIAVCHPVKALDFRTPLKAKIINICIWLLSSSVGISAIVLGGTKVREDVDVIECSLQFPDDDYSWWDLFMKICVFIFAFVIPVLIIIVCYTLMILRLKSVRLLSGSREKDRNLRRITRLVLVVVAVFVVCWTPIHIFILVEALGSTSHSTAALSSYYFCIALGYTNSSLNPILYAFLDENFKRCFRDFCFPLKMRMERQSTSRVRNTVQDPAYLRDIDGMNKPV
# UniProt P41143, whole entry: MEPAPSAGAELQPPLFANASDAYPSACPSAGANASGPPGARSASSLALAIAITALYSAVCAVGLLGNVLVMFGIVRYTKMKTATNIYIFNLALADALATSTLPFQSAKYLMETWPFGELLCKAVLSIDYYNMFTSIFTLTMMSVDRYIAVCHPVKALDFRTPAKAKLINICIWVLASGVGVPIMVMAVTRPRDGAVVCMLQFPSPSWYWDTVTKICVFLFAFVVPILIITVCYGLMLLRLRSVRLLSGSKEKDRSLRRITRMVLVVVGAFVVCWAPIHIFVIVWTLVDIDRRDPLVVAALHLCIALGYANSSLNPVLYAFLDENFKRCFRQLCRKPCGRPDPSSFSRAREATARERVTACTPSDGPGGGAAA
# Details in all cases: Abdomen
# [1] = biological target: Mu-type opioid receptor (Homo sapiens) (UniProt P35372); assay: Compound was tested for the beta-FNA Mu receptors Selectivity of Antinociception in the Mouse Abdominal Stretch Assay by using antagonists; ED50 ratio
# [2] = biological target: Kappa-type opioid receptor (Homo sapiens) (UniProt P41145); assay: Compound was tested for the nor-BNIb kappa receptors Selectivity of Antinociception in the Mouse Abdominal Stretch Assay by using antagonists; ED50 ratio
# [3] = biological target: Delta-type opioid receptor (Homo sapiens) (UniProt P41143); assay: Compound was tested for the NTI Delta receptor Selectivity of Antinociception in the Mouse Abdominal Stretch Assay by using antagonists; ED50 ratio
compound,measurement,setting,value
CN(C(=O)Cc1ccc(Cl)c(Cl)c1)[C@H](CN1CCCC1)c1ccccc1,Ratio,[1],1.72
same,Ratio,[2],2.31
same,Ratio,[3],1.19
